Measured values from ChEMBL document CHEMBL4190239, “A novel structural class of coumarin-chalcone fibrates as PPARα/γ agonists with potent antioxidant activities: Design, synthesis, biological evaluation and molecular docking studies” (Eur J Med Chem, 2017).

Amino acid sequences for entries named in this document (tags omitted). A change or cut given only in a name is not applied to a line headed by its entry.
UniProt P37231: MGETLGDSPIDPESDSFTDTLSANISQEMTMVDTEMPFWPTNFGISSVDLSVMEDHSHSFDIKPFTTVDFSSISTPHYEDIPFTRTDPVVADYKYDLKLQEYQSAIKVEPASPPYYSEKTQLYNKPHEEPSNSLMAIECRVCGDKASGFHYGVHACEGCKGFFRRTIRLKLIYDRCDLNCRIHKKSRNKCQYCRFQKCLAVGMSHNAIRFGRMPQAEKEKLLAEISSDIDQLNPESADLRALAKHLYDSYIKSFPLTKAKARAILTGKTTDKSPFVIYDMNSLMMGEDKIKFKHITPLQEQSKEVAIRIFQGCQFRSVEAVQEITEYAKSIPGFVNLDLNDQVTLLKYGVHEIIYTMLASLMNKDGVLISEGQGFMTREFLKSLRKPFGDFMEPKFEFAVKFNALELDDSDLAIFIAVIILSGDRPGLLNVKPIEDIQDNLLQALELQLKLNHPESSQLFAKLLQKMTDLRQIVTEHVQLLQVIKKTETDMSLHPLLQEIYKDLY

Target: Peroxisome proliferator-activated receptor gamma (Homo sapiens, UniProt P37231)
Test: Agonist activity at GAL4-fused PPARgamma LBD (unknown origin) expressed in HEK293 cells assessed as receptor transactivation at 10 uM after 18 hrs by dual luciferase reporter gene assay
Format: cell-based

fold change (FC) | Structure (SMILES)
1.3 | CC(C)(Oc1ccc(C(=O)c2cc3c(ccc4ccccc43)oc2=O)cc1)C(=O)O
1.31 | CCOC(=O)C(C)(C)Oc1ccc(C(=O)C2Cc3ccccc3OC2=O)cc1 (centres undefined)
0.88 | CCOC(=O)C(C)(C)Oc1ccc(C(=O)c2cc3cc(N)ccc3oc2=O)cc1
1.19 | CCOC(=O)C(C)(C)Oc1ccc(C(=O)c2cc3cc(F)ccc3oc2=O)cc1
